# Assay results taken from article PMC11156913, “New sulfonamide-based glycosides incorporated 1,2,3-triazole as cytotoxic agents through VEGFR-2 and carbonic anhydrase inhibitory activity” (Scientific Reports, 2024).
# System: colorectal HCT-116 cancer cell line
# Experiment: In vitro cytotoxic activity (MTT assay), HCT-116
# Type: cell-based
# Details: Homo sapiens, HCT-116 cells, read-out: IC50 (mean ± SD) HCT-116
# Description: The supplemental file contained extra details.
structure (smiles),measurement,value
"CCN(CC)CCNC(=O)c1c(C)[nH]c(/C=C2\C(=O)Nc3ccc(F)cc32)c1C [Sunitinib, reference compound]",IC50,9.67 ± 0.22 µM
